Values of other authors, collected in patent US20090186081A1, “Disintegrating Loadable Tablets” (LifeCycle Pharma A/S, priority 2006, published 2009).

Settings: Table 1, Poorly-Soluble Drug Candidates

Q: For Medroxyprogesterone, which “Solubility In Water” value is on record?
A: Its value is “Insoluble”.
